Measured values taken from patent US10106501B2, “Nuclear receptor modulators” (AbbVie Inc., priority 2015, dated 2018).

Chains of the proteins cited; added tags and fusions are not shown. Residues count along the entry.
UniProt P51449, 269-508 limits assumed, stated change not applied: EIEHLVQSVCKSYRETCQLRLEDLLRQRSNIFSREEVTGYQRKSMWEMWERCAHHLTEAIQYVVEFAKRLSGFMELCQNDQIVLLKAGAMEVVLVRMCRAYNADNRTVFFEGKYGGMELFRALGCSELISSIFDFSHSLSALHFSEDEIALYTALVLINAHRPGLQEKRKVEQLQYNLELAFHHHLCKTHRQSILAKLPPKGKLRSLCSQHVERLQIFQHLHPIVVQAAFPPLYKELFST

Each compound was assayed against chimeric human RORγ-Gal4 receptor (Homo sapiens, UniProt P51449) (assay: transient transactivation assay (RORγ-Gal4 luciferase reporter)). Conditions: Cos-7 cells transfected with RORγ-Gal4 and 5Gal4 pGL3 TK Luc reporter; overnight incubation; T0901317 at 10^-5 M as reference.
Format: cell-based

Question: How did the pIC50 turn out when `Cc1cc(C#N)cc2c1cc(Cc1c(Cl)ccc(C(=O)N3CCC(CC(C)O)CC3)c1Cl)n2C` (stereo not shown) [AA-37] was run?
Answer: > 7.00

Question: With `Cc1cc(C(F)(F)F)nc2c1cc(C(=O)c1c(Cl)ccc(C(=O)N3CCC(CC(=O)O)CC3)c1Cl)n2C` [Example FU, 2-(1-(2,4-dichloro-3-(1,4-dimethyl-6-(trifluoromethyl)-1H-pyrrolo[2,3-b]pyridine-2-carbonyl)benzoyl)piperidin-4-yl)acetic acid] as the compound, how does the pIC50 read?
Answer: > 7.00

Question: With `Cc1cc(C(F)(F)F)nc2c1cc(Cc1c(Cl)ccc(C(=O)N3CCC(C(=O)O)CC3)c1Cl)n2C` [Example FS, 1-(2,4-dichloro-3-((1,4-dimethyl-6-(trifluoromethyl)-1H-pyrrolo[2,3-b]pyridin-2-yl)methyl)benzoyl)piperidine-4-carboxylic acid] as the compound, how does the pIC50 read?
Answer: > 7.00

Question: How did the pIC50 turn out when `Cc1cc(C#N)cc2c1cc(Cc1c(Cl)ccc(C(=O)N3CCC(C(C)(C)O)CC3)c1Cl)n2C` [AA-2] was run?
Answer: > 7.00

Question: With `Cc1cc(C#N)cc2c1cc(Cc1c(Cl)ccc(C(=O)N3CCC(CO)CC3)c1Cl)n2C` [AA-7] as the compound, how does the pIC50 read?
Answer: > 7.00

Question: With `Cc1cc(C(F)(F)F)cc2c1cc(Cc1c(Cl)ccc(C(=O)N3CCN(CC(=O)O)CC3)c1Cl)n2C` [Example AW, 2-(4-(2,4-dichloro-3-((1,4-dimethyl-6-(trifluoromethyl)-1H-indol-2-yl)methyl)benzoyl)piperazin-1-yl)acetic acid] as the compound, how does the pIC50 read?
Answer: > 7.00

Question: `Cc1cc(C#N)cc2c1cc(Cc1c(Cl)ccc(C(=O)N3CC[C@@H](O)C3)c1Cl)n2C` [AA-39] was tested. Which pIC50 did it give?
Answer: 6.30 to 7.00

Question: `Cc1cc(C(F)(F)F)cc2c1cc(C(=O)c1c(Cl)ccc(C(=O)N3CCN(CC(=O)O)CC3)c1Cl)n2C` [AQ-1] was tested. Which pIC50 did it give?
Answer: > 7.00

Question: With `Cc1cc(C#N)cc2c1cc(Cc1c(Cl)ccc(C(=O)N3CCC(O)C3)c1Cl)n2C` (stereo not shown) [AA-18] as the compound, how does the pIC50 read?
Answer: > 7.00

Question: `COCCC1CCN(C(=O)c2ccc(Cl)c(Cc3cc4c(C)cc(C#N)cc4n3C)c2Cl)CC1` [AA-27] was tested. Which pIC50 did it give?
Answer: > 7.00

pIC50: −log10 of the molar value.
